Results from patent US20190062383A1, “Kv1.3 Antagonists and Methods of Use” (published 2019).

Target: human Kv1.3 (human) (UniProt P22001)
Experiment: cell-based or functional assay

Substance: Negative control IgG4 Fc (from UniProt P01861 99-327)
- % T cell inhibition (IL-2) at 5 nM: 0%
